# Biological target: Apelin Receptor (APJ) stably overexpressed in CHO-K1 AGTRL1 Gi cells (UniProt P35414)
# The chains behind the UniProt entries cited, without tags or fusion partners. Where a name states a change or a piece, a line headed by the entry shows the natural chain unless it says otherwise.
# UniProt P35414: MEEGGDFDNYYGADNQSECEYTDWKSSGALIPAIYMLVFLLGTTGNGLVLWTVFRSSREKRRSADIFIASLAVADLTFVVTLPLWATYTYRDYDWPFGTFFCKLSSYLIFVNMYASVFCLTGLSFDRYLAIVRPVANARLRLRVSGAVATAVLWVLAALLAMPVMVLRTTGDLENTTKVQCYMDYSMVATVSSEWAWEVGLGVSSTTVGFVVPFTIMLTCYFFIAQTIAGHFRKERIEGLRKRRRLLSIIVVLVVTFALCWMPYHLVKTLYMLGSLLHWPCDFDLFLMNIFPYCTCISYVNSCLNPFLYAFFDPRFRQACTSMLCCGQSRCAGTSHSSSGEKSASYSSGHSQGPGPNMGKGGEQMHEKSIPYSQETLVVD
# UniProt Q9ULZ1: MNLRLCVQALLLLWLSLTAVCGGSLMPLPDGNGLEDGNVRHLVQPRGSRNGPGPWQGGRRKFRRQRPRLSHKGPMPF
# Assay: cell-based or functional assay
substance,measurement,value
Pyr-Apelin-13 (from UniProt Q9ULZ1 65-77) (peptide),"IC50 (M), inhibition of forskolin-stimulated cAMP accumulation",1.76e-09 M

# Source: patent US20230218710A1, “METHOD OF TREATING CORONAVIRUS INFECTIONS” (priority 2020, published 2023)
